## Binding of CDR-mutated scFvs to a peptide of the spike HR2 region

From the AlphaSeq antibody data of Engelhart et al. 2022 (doi:10.1038/s41597-022-01779-4), copy in the FLAb collection.

All variants were tested on one target, the spike HR2 peptide PDVDLGDISGINAS (SARS-CoV-2).

The variants keep the heavy chain, the linker and the frameworks of Ab-14 (scFv order VH, the linker GGGGSGGGGSGGGGS, VL).
VH: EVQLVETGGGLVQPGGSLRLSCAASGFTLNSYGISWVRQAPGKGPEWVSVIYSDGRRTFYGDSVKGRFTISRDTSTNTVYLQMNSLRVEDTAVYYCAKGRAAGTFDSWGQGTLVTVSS
VL: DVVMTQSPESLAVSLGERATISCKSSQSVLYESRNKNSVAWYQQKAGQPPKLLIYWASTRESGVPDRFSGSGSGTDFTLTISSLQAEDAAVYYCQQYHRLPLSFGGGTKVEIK

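The parent was found by panning a naive human phage display library on the peptide. AAYL50 was designed without a model: most single CDR substitutions and a random sample of double and triple ones. AlphaSeq pools MATa yeast showing the antibodies with MATalpha yeast showing the peptide. After mating in shaken culture at 30 °C for 16 h, diploids were selected and their barcode pairs sequenced. A regression on co-assayed BCL2-family reference pairs converts the normalised counts of each replicate to an apparent Kd. Each pool was mated in three replicate cultures.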

The parent's light chain CDRs are KSSQSVLYESRNKNSVA, WASTRES, QQYHRLPLS; each variant's own CDRs replace them letter for letter.
All variants listed here change S62 of the VL, counted from its first residue.
The Kd shown is the geometric mean over detected replicates; a lower Kd is a better binder.
"nd" marks a missing value. The strain was present, yet no cells mated with the target were sequenced in any replicate, which points to weak or no binding.
In this assay the parent's reference entry averaged 4.4 nM; its copy inside this library read 48 nM.
As a blank, each scFv also met three strains without target: over library AAYL50, 18% of these pairings were detected, typically at 15 µM and seldom below 970 nM.

The variant KSSQSVLYESRNKNSVA / WASTRYN / QQYHRLPWS gave 48 µM (2 of 3 replicates).
The variant KSDQSVLYESRNKNSVA / WASTREK / QSYHRLPLS gave 33 nM (3 of 3 replicates).
The variant KRSQSVLYESRNKNSVA / WASTREK / QQYHRLPGS gave 19 µM (2 of 3 replicates).
The variant KSSQSVRYESRNKNSVA / WASTREL / QQYHRLPGS gave 40 µM (1 of 3 replicates).
The variant KSSQSVLYESRNKNSVA / WASTREM / QAYHDLPLS gave 35 nM (3 of 3 replicates).
The variant KSSRTVLYESRNKNSVA / WASTREY / QQYHRLPLS gave 29 nM (3 of 3 replicates).
The variant KSSQSVLYESINYNSVA / WASTREQ / QQYHRLPLS gave 17 nM (3 of 3 replicates).
The variant KSSQSVLDESRNKNSVA / WASTREI / QQYHRLGLS gave 24 nM (3 of 3 replicates).
The variant KSSASVLYESRNKNSVA / WASTREE / QQRHRLPLS gave nd (0 of 3 replicates).
The variant KSSQSVRYESRNKNSVA / WVSTREP / QQYHRLPLS gave 130 nM (3 of 3 replicates).
The variant KSSQSVLYESRNKNTVA / WASTREM / QQYHRLPAS gave 2.8 µM (1 of 3 replicates).
The variant KSSDSVLYESRNKNSVE / WASTREM / QQYHRLPLS gave nd (0 of 3 replicates).
The variant KSSQSVLYASRNKNSVA / WASTRHK / QQYHRLPLS gave 940 nM (3 of 3 replicates).
The variant KSDQSVLYESRNKNHVA / WASTREW / QQYHRLPLS gave 120 nM (3 of 3 replicates).
The variant KSSQSVLYESRNKNSVA / WTSTQET / QQYHRLPLS gave 130 µM (1 of 3 replicates).
The variant KSSQSVLWESRNKNSVA / KASTREN / QQYHRLPLS gave 5.7 nM (3 of 3 replicates).
The variant KSSQSVSYESRNKNSVA / WASTREG / QQYHRLDLS gave 57 nM (3 of 3 replicates).
The variant KSSQSVLYRSRNKNSVA / WASTREI / QQYHALPLS gave 420 nM (3 of 3 replicates).
The variant KSSQSRLYESRNKNSVA / WASTREA / QQYVRLPLS gave 5.1 µM (3 of 3 replicates).
The variant KSSQSVDYESKNKNSVA / WASTREM / QQYHRLPLS gave 3.7 nM (3 of 3 replicates).
The variant KSSQSVLYESRNKNSHA / WASTREW / QQYHRLPLS gave nd (0 of 3 replicates).
The variant KSSQSVLYKSRNKNSVA / WATTREE / QQYHRLPLS gave 10 nM (3 of 3 replicates).
The variant KSSGSVLYESRNKNSVA / WASTREM / QQYHNLPLS gave 39 nM (3 of 3 replicates).
The variant KSSQSVLYLSRNKNSVA / WASTREP / QQYHRLPLA gave 89 nM (3 of 3 replicates).
The variant KSSQSVLYESRNKNSVA / WASTREL / QDYHRLPLI gave 100 nM (3 of 3 replicates).
The variant KSSQSVQYESRAKNSVA / WASTREH / QQYHRLPLS gave 7.5 nM (3 of 3 replicates).
The variant KSSQSVLYESRNKNSVA / WGSTREY / QQYHRLPLS gave 32 nM (3 of 3 replicates).
The variant KSSQSVLYESRNKNSVA / WASTREQ / QQDHRLHLS gave 39 µM (2 of 3 replicates).
The variant GDSQSVLYESRNKNSVA / WASTRET / QQYHRLPLS gave 220 nM (3 of 3 replicates).
The variant KSSQSYLYESRNKNSVA / WASTREN / QQYHRLWLS gave nd (0 of 3 replicates).
The variant KSSQSVLDEARNKNSVA / WASTREY / QQYHRLPLS gave 27 nM (3 of 3 replicates).
The variant KSSQSVLYESRNKNSCA / WAITREH / QQYHRLPLS gave 490 nM (3 of 3 replicates).
The variant KSSQSVLYESRMKNSSA / WASTREG / QQYHRLPLS gave 570 nM (1 of 3 replicates).
The variant KSSQSVLYEHRNKNSVA / WASTREP / QCYHRLPLS gave 2.3 µM (3 of 3 replicates).
The variant KSSQSVLYESRNKNSDA / WASTREY / QKYHRLPLS gave 180 µM (1 of 3 replicates).
The variant KSSQMVLFESRNKNSVA / WASTREV / QQYHRLPLS gave 9.5 nM (3 of 3 replicates).
The variant KSSQSVLYESRNKNSVA / WASTREN / QQYHALPNS gave nd (0 of 3 replicates).
The variant WSSQSVLYESRNKYSVA / WASTREV / QQYHRLPLS gave 150 nM (3 of 3 replicates).
The variant KSSQSVLYESRNDNSQA / WASTREW / QQYHRLPLS gave nd (0 of 3 replicates).
The variant KSSQSVLYESRNKWSVA / WACTREW / QQYHRLPLS gave nd (0 of 3 replicates).
The variant KSQQSVHYESRNKNSVA / WASTREN / QQYHRLPLS gave 8.3 nM (3 of 3 replicates).
The variant KSSQSVLYESRNKNSVA / YASTREC / QQYHRLPLS gave 12 nM (3 of 3 replicates).
The variant KSSQSVLYESRNKNSVA / WVSKREE / QQYHRLPLS gave 69 nM (3 of 3 replicates).

Excerpt, the first 6 entries:

| CDR-L1 | CDR-L2 | CDR-L3 | Kd (apparent) | detected |
|---|---|---|---|---|
| KSSQSVLYESRNKNSVA | WASTRYN | QQYHRLPWS | 48 µM | 2/3 |
| KSDQSVLYESRNKNSVA | WASTREK | QSYHRLPLS | 33 nM | 3/3 |
| KRSQSVLYESRNKNSVA | WASTREK | QQYHRLPGS | 19 µM | 2/3 |
| KSSQSVRYESRNKNSVA | WASTREL | QQYHRLPGS | 40 µM | 1/3 |
| KSSQSVLYESRNKNSVA | WASTREM | QAYHDLPLS | 35 nM | 3/3 |
| KSSRTVLYESRNKNSVA | WASTREY | QQYHRLPLS | 29 nM | 3/3 |